Experimental data reported in ChEMBL document CHEMBL2057141, “Imidazolopiperazines: lead optimization of the second-generation antimalarial agents” (J Med Chem, 2012).

By UniProt entry, the sequences of proteins in these tests, tags left out.
UniProt P11712, whole entry: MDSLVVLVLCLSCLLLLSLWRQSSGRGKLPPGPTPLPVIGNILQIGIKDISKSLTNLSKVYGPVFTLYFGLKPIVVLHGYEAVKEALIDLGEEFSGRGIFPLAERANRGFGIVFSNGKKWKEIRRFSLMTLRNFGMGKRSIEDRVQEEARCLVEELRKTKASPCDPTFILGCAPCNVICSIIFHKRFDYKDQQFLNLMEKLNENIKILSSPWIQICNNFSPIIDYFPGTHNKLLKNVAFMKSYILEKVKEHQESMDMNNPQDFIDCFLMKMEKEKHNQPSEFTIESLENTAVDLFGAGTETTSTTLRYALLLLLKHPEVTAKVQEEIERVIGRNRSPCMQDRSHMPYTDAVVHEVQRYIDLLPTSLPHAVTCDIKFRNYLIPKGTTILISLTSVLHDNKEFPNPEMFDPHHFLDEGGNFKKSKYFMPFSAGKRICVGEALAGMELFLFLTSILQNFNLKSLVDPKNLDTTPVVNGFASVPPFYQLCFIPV
UniProt P05177, whole entry: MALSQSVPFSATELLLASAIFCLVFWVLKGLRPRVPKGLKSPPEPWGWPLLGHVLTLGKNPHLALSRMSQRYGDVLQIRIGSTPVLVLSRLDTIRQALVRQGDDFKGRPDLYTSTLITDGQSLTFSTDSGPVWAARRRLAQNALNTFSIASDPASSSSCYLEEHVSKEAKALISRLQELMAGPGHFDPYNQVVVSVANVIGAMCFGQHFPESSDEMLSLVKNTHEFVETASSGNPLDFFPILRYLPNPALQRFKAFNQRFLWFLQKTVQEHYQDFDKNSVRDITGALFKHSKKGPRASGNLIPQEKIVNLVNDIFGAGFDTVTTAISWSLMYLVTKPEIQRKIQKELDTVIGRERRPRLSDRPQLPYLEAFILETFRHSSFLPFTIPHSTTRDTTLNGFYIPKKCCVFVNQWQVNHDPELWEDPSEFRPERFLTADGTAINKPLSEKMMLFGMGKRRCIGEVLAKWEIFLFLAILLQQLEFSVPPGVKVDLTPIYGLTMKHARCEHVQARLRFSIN
UniProt P08684, whole entry: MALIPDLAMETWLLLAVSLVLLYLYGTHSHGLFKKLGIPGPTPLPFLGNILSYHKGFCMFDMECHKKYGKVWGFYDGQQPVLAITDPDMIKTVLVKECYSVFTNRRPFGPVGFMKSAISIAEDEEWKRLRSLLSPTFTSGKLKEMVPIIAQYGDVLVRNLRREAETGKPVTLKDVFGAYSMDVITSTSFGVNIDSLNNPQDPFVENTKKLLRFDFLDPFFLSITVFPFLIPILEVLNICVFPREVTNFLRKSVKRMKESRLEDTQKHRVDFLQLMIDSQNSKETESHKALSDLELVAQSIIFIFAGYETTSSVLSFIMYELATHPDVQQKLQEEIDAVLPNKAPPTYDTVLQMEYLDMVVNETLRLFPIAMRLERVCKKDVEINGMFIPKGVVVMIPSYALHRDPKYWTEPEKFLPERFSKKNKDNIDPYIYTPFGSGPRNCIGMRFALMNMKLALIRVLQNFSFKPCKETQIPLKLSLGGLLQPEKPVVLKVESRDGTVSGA
UniProt P33261, whole entry: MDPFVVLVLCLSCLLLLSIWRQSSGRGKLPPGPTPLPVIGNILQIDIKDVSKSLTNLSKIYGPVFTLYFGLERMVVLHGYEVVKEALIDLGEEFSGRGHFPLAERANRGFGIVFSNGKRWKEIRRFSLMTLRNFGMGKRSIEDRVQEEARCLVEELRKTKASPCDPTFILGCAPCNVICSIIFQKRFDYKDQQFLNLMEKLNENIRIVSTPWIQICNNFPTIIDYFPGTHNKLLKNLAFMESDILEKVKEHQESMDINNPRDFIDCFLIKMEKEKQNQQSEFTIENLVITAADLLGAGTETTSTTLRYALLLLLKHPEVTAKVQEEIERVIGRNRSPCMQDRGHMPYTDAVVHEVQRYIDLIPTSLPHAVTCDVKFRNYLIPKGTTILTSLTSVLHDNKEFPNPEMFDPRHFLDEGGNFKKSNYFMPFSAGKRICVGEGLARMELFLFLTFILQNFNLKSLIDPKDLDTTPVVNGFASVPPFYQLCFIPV
UniProt P10635, whole entry: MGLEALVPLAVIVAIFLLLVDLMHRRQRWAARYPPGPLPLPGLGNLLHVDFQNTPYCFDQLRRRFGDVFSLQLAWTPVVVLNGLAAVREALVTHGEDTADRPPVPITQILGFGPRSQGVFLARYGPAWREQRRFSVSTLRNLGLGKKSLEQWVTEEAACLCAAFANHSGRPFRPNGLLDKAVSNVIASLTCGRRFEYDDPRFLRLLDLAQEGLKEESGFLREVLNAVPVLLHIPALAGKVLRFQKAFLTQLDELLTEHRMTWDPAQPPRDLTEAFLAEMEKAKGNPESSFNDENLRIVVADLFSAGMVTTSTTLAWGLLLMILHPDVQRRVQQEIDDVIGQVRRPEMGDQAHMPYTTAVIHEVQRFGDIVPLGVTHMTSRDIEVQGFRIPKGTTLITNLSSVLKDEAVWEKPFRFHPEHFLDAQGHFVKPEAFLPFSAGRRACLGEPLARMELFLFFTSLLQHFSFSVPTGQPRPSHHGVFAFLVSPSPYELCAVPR

Legend:
Cytochrome P450 2C9 = Cytochrome P450 2C9 (Homo sapiens, UniProt P11712); experiment: Inhibition of human CYP2C9
Cytochrome P450 1A2 = Cytochrome P450 1A2 (Homo sapiens, UniProt P05177); experiment: Inhibition of human CYP1A2; type: ADME
Cytochrome P450 3A4 = Cytochrome P450 3A4 (Homo sapiens, UniProt P08684); experiment: Inhibition of human CYP3A4
Cytochrome P450 2C19 = Cytochrome P450 2C19 (Homo sapiens, UniProt P33261); experiment: Inhibition of human CYP2C19
Cytochrome P450 2D6 = Cytochrome P450 2D6 (Homo sapiens, UniProt P10635); experiment: Inhibition of human CYP2D6

Measured: IC50

CC1(C)c2nc(-c3ccc(F)cc3)c(Nc3ccc(F)cc3)n2CCN1C(=O)CN [GANAPLACIDE]
> 6 µM: Cytochrome P450 2C9 | Cytochrome P450 1A2 | Cytochrome P450 3A4 | Cytochrome P450 2C19 | Cytochrome P450 2D6
